Measured values: US20060194835A1, “Compositions and methods for treating or preventing flaviviridae infections” (priority 2005, published 2006)

Legend:
BVDV = assay: Protection of MDBK cells from BVDV-induced cytopathicity (CPE reduction, MTS/PMS); assay type: cell-based, bovine viral diarrhea virus
MDBK cells = assay: Drug cytotoxicity in uninfected MDBK cells (MTS/PMS)

Interferon-β-1a: interferon-β-1a (Avonex, Biogen Idec; or Rebif, Serono Inc.)
EC50 (BVDV; 50% CPE reduction, MOI 0.01): >1000 IU/mL
protection of MDBK cells from BVDV-induced cytopathicity (in words) (BVDV; at the concentrations tested): do not protect
CC50 (MDBK cells): >1000 IU/mL
